{
  "source": "patent US4628089A",
  "about": "“Pyrido(2,3-D)pyrimidines” (Southern Research Institute, priority 1985, dated 1986)",
  "tested_on": "lymphocytic leukemia P388",
  "experiment": "Activity against lymphocytic leukemia P388 in mice",
  "type": "in vivo, mouse (CDF1 mice)",
  "conditions": "2 mg/kg; ip, qd 1-9 days; 10^6 P388 cells ip, CDF1 mice",
  "data": [
    {"smiles": "CN(Cc1cnc2nc(N)nc(N)c2n1)c1ccc(C(=O)N[C@@H](CCC(=O)O)C(=O)O)cc1", "note": "[Methotrexate, reference compound]", "values": [
      {"measurement": "% ILS", "value": 61, "unit": "%"}
    ]}
  ]
}
